Yeast mating assay 1: variants of the scFv Ab-14

The target is the same throughout: PDVDLGDISGINAS, from the HR2 region of SARS-CoV-2 spike.

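The parent was found by panning a naive human phage display library on the peptide. In library AAYL50, one, two or three CDR residues were substituted; doubles and triples were drawn at random. Affinity was read by AlphaSeq, a pooled yeast mating assay with surface-displayed partners. Pairs that bind mate more often; barcode pairs of the diploids are counted by sequencing. Each replicate has its own calibration line, from reference interactions of the BCL2 family. There are three technical replicates.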

Parent: Ab-14, a human scFv built as VH, a 15-residue (Gly4Ser)3 linker, VL. Only the CDRs of the light chain vary.
VH: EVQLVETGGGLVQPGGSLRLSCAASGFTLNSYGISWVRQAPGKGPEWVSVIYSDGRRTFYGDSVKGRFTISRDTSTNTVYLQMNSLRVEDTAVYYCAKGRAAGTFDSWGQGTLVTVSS
VL: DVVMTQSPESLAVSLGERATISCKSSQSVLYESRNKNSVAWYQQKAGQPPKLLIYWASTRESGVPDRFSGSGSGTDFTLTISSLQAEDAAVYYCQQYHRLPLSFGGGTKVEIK

Substitutions are numbered in sequence along the VL above, starting at 1 (not Kabat). This list gathers variants with a substitution at Q95 (VL, numbered from residue 1). Numbers give log10(Kd / nM), so 0 is 1 nM and 3 is 1 µM. Smaller is tighter. The mean shown is taken over the replicates in which the pair was detected. "nd" marks a missing value. The strain was present, yet no cells mated with the target were sequenced in any replicate, which points to weak or no binding. Order: sorted from the lowest average up, undetected variants last. Three control strains display no target. For library AAYL50, 18% of the pairings with them gave a signal, with a median of 4.19 and one signal in twenty below 2.99, so weak values seen in few replicates may be background. For each scFv, signals with the empty controls are counted beside the result. In this assay the parent's reference entry averaged 0.65; its copy inside this library read 1.68.

For W56G/Q95G/S103I, the assay gave 0.27 (3 of 3 replicates; controls 2 of 9).
For L30E/Q95V, the assay gave 0.28 (3 of 3 replicates; controls 0 of 9).
For K36Q/T59R/Q95I, the assay gave 0.71 (3 of 3 replicates; controls 1 of 9).
For S62Q/Q95T/L102P, the assay gave 0.72 (3 of 3 replicates; controls 2 of 9).
For Q95Y/Y97R/P101F, the assay gave 1.37 (3 of 3 replicates; controls 3 of 9).
For N37F/S62F/Q95H, the assay gave 1.42 (3 of 3 replicates; controls 0 of 9).
For S33A/K36A/Q95T, the assay gave 1.67 (3 of 3 replicates; controls 2 of 9).
For N35W/E61A/Q95C, the assay gave 1.71 (3 of 3 replicates; controls 1 of 9).
For S28L/K36L/Q95E, the assay gave 1.92 (3 of 3 replicates; controls 4 of 9).
For S62D/Q95R, the assay gave 2.22 (3 of 3 replicates; controls 2 of 9).
For S33N/S62G/Q95L, the assay gave 2.43 (3 of 3 replicates; controls 5 of 9).
For A57G/T59H/Q95H, the assay gave 2.53 (3 of 3 replicates; controls 5 of 9).
For S26V/Y31S/Q95I, the assay gave 2.54 (1 of 3 replicates; controls 0 of 9).
For K24F/Q95G, the assay gave 2.67 (1 of 3 replicates; controls 1 of 9).
For Q95T/R99M/L102M, the assay gave 2.77 (3 of 3 replicates; controls 0 of 9).
For S28T/L30A/Q95P, the assay gave 3.13 (1 of 3 replicates; controls 4 of 9).
For A57D/Q95D, the assay gave 3.56 (3 of 3 replicates; controls 2 of 9).
For S33D/Q95C/S103V, the assay gave 3.74 (3 of 3 replicates; controls 2 of 9).
For Q27W/Q95N/Q96F, the assay gave 4.03 (1 of 3 replicates; controls 3 of 9).
For Q95W, the assay gave 4.04 (2 of 3 replicates; controls 4 of 9).
For N35I/A57E/Q95S, the assay gave 4.13 (1 of 3 replicates; controls 0 of 9).
For E32C/N35C/Q95K, the assay gave 4.23 (1 of 3 replicates; controls 7 of 9).
For L30N/Q95S/R99L, the assay gave 4.31 (1 of 3 replicates; controls 4 of 9).
For K36A/Q95Y/L100I, the assay gave 4.41 (2 of 3 replicates; controls 6 of 9).
For Y31D/R34S/Q95F, the assay gave 4.49 (3 of 3 replicates; controls 4 of 9).
For V39C/S62R/Q95E, the assay gave 4.52 (3 of 3 replicates; controls 2 of 9).
For K24F/S26I/Q95E, the assay gave 4.71 (1 of 3 replicates; controls 0 of 9).
For Q95M/L102P, the assay gave 4.79 (2 of 3 replicates; controls 1 of 9).
For Y31E/Q95D/L100Y, the assay gave 5.19 (1 of 3 replicates; controls 0 of 9).
For S62R/Q95R/P101F, the assay gave 5.65 (1 of 3 replicates; controls 0 of 9).
For K36G/W56M/Q95Y, the assay gave nd (0 of 3 replicates; controls 1 of 9).
For R34F/A57V/Q95P, the assay gave nd (0 of 3 replicates; controls 0 of 9).
For S25P/Q95P/L100A, the assay gave nd (0 of 3 replicates; controls 1 of 9).
For Q27E/S28A/Q95F, the assay gave nd (0 of 3 replicates; controls 3 of 9).
For S25P/Q95N/S103G, the assay gave nd (0 of 3 replicates; controls 0 of 9).
For S38V/Q95V/L102A, the assay gave nd (0 of 3 replicates; controls 1 of 9).
For Q95V/H98S/S103A, the assay gave nd (0 of 3 replicates; controls 0 of 9).
For Y31G/N35S/Q95N, the assay gave nd (0 of 3 replicates; controls 2 of 9).
For E32M/Q95I/H98K, the assay gave nd (0 of 3 replicates; controls 0 of 9).
For W56C/E61D/Q95Y, the assay gave nd (0 of 3 replicates; controls 3 of 9).
For N37Q/V39P/Q95P, the assay gave nd (0 of 3 replicates; controls 0 of 9).
For S58D/Q95L/R99H, the assay gave nd (0 of 3 replicates; controls 0 of 9).
For Q95P/R99L/P101C, the assay gave nd (0 of 3 replicates; controls 0 of 9).
For T59G/Q95Y/S103C, the assay gave nd (0 of 3 replicates; controls 1 of 9).
For S58C/R60A/Q95E, the assay gave nd (0 of 3 replicates; controls 3 of 9).
For N35Q/V39Q/Q95R, the assay gave nd (0 of 3 replicates; controls 6 of 9).
For T59L/S62C/Q95V, the assay gave nd (0 of 3 replicates; controls 2 of 9).
For S28V/N37V/Q95N, the assay gave nd (0 of 3 replicates; controls 0 of 9).

Excerpt, the final 5 entries:

{"changes": "T59G/Q95Y/S103C", "mean log10 Kd (nM)": "nd", "seen in": "0 of 3", "empty controls": "1 of 9"}
{"changes": "S58C/R60A/Q95E", "mean log10 Kd (nM)": "nd", "seen in": "0 of 3", "empty controls": "3 of 9"}
{"changes": "N35Q/V39Q/Q95R", "mean log10 Kd (nM)": "nd", "seen in": "0 of 3", "empty controls": "6 of 9"}
{"changes": "T59L/S62C/Q95V", "mean log10 Kd (nM)": "nd", "seen in": "0 of 3", "empty controls": "2 of 9"}
{"changes": "S28V/N37V/Q95N", "mean log10 Kd (nM)": "nd", "seen in": "0 of 3", "empty controls": "0 of 9"}

Values reported by Engelhart et al. 2022, doi:10.1038/s41597-022-01779-4 (FLAb copy).